This is a sample that favours compounds with a hit; in the whole collection about 2.8% have one here.
esBAF inh: Bmi1 luciferase reporter increase in mESCs, primary screen, esBAF inhibitor project, mouse ES cells, Bmi1 luciferase knock-in, single point | 24 h; 100% = twice the neutral-well signal | reporter increase, % at 12.5 µM | hit rate 2% among 350,000 | AID 602393, 2012; in the data active = activation above about 40%;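 note: a rise in the Bmi1 reporter signal indicates esBAF inhibition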
miR-122 sensor: miR-122 Renilla sensor signal increase in Huh7, primary screen, miR-122 inhibitor project, cell-based, single point, plate reader; Huh7 miR-122 Renilla luciferase sensor, 48 h; neutral wells = 0, positive control = 100; activation (reporter increase), % at 12.5 µM; hit rate 0.3% among 340,000;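 active = mean replicate activation score at least 90 and every replicate individually at or above 90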;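 note: higher luciferase means less miR-122 activity so hits act as miR-122 inhibitors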
Yeast UUG start-1: alters start codon recognition fidelity in yeast. S. cerevisiae UUG-firefly luciferase reporter, luminescence/redox ratio. AID 602363. activity score, % at 18.7 µM. hit rate 0.13% among 350,000;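 active = replicate mean at a twofold rise or more, about +100% in these data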;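 note: firefly luciferase made from a UUG start codon reports start codon fidelity; reporter light over untreated wells divided by growth signal over untreated wells; some hits fall short of that in this replicate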
PglD DTNB: C. jejuni PglD acetyltransferase inhibitors, primary screen, biochemical, DTNB colorimetric, single point; UDP-N-acetylbacillosamine N-acetyltransferase PglD (Campylobacter jejuni); purified PglD enzyme, DTNB colorimetric CoA detection; inhibition, % at 12.5 µM; hit rate 0.098% among 360,000; AID 602405, 2012; in the data active = inhibition above about 16%, passing the limit was not always enough
MITF act: activators of MITF-driven TRPM1 promoter reporter, primary screen, cell-based, SK-MEL-5, luciferase, single point; SK-MEL-5 TRPM1-promoter luciferase, 24 h; % of positive control, neutral wells = 0; activation, % at 12.5 µM; hit rate 0.75% among 300,000; AID 588334, 2011;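 active = mean activation of at least 80% with every replicate also reaching 80%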
Wnt bcat act: Wnt/beta-catenin pathway activators, primary screen, cell-based, plate reader, single point | Wnt/beta-catenin reporter cell assay, activator | AID 743398, 2014 | activation, % at 9.35 µM | hit rate 1.2% among 300,000; in the data active = activation above about 30%, passing the limit was not always enough
miR-27b select: miR-27b levels after miR-122 inhibitor treatment, dose response, selectivity assay for miR-122 inhibitor project, cell-based, Huh7, RT-qPCR, dry powder | Huh7 miR-27b levels, qRT-PCR, 48 h | relative miR-27b level (unnormalised ratio), ratio at 35 µM | shares compounds with miR-122 sensor | 35 tested, under 10 active;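 active = compounds lowering miR-27b whose fitted half-maximal dose is at most twice their top tested dose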
Yeast UUG start-2: enhancers of UUG start codon usage in yeast, dose response, S. cerevisiae, UUG firefly luciferase, cherry-pick, set 2; activation, % at 38 µM; luminescence, 4 h; 100% means double the DMSO signal; 540 tested, under 10 active; shares compounds with Yeast UUG start-1; AID 652061, 2013;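 active = signal increase whose fitted curve reaches an absolute level of 40 at a concentration under 10 µM; inactive = activity opposite to the expected increase, or the rest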
Of the large screens only hits and unclear results are named; the others gave an inactive call (follow-up assays come after a bar, where they were run).

CO[C@@H](CN(C)S(=O)(=O)c1ccc(F)cc1)[C@@H](C)CN(C(=O)Nc1ccccc1F)[C@@H](C)CO	none (no result: miR-122 sensor, Yeast UUG start-1, MITF act, Wnt bcat act)
O=[N+]([O-])c1cc(/C=N/N2CCCCC2)ccc1Cl	MITF act 99.2 (no result: esBAF inh, miR-122 sensor, Yeast UUG start-1, PglD DTNB)
CC(C)c1ccc(/C=N/N2CCCCC2)cc1	MITF act 97.8, Wnt bcat act 45.4 (no result: esBAF inh, miR-122 sensor, Yeast UUG start-1, PglD DTNB)
O=[N+]([O-])c1cccc(C=NN2CCCCCC2)c1	esBAF inh 78.8 (no result: Yeast UUG start-1, PglD DTNB)
O=[N+]([O-])c1cc(/C=N/NC(=S)Nc2ccccc2Cl)ccc1Cl	esBAF inh 45.6
O=C(C[C@@H]1CC[C@@H]2[C@H](COC[C@@H](O)CN2Cc2ccccc2)O1)N[C@H]1CCN(Cc2ccccc2)C1	none (no result: MITF act, Wnt bcat act)
C[C@H](CO)N1C[C@H](C)[C@@H](CN(C)C(=O)Nc2ccc(F)cc2)OCCCC[C@H](C)Oc2ccc(NC(=O)CCCN(C)C)cc2C1=O	none (no result: MITF act, Wnt bcat act)
O=[N+]([O-])c1cc(C=NN2CCCCCC2)ccc1Cl	esBAF inh 73.8, Wnt bcat act 40.1 (no result: Yeast UUG start-1, PglD DTNB)
Cc1ccc(S(=O)(=O)N(C)C[C@H]2OCCCC[C@H](C)Oc3ccc(NC(=O)Nc4cccc5ccccc45)cc3C(=O)N([C@H](C)CO)C[C@@H]2C)cc1	none (no result: MITF act, Wnt bcat act)
COc1cc(C)c(C(C)C)cc1S(=O)(=O)n1cnc(C)c1	miR-122 sensor 152.2 | miR-27b select inactive
Cc1cc(C(=O)Nc2cccc3c2O[C@@H](CN(C)S(=O)(=O)c2ccc(F)cc2)[C@@H](C)CN([C@@H](C)CO)C3=O)n(C)n1	none (no result: MITF act, Wnt bcat act)
C[C@@H]1CCCCO[C@H](CN(C)CC2CCCCC2)[C@H](C)CN([C@H](C)CO)C(=O)c2cc(NC(=O)CCCN(C)C)ccc2O1	none (no result: Yeast UUG start-1, PglD DTNB, MITF act, Wnt bcat act)
CN1C(=O)c2cccc3c(S(=O)(=O)NCCc4ccccc4)ccc1c23	miR-122 sensor 117.1 | miR-27b select inactive
COCCNS(=O)(=O)c1ccc2c3c(cccc13)C(=O)N2C	none (no result: Yeast UUG start-1, PglD DTNB)
CO[C@H]1CN(C)C(=O)c2ccc(NC(C)=O)cc2OC[C@H](C)N(Cc2nccs2)C[C@H]1C	none (no result: MITF act, Wnt bcat act)
Cc1ccc(C)c(S(=O)(=O)NCCCn2ccnc2)c1	none (no result: Wnt bcat act)
Cc1cc(Cl)c(Cl)cc1S(=O)(=O)NCCCn1ccnc1	miR-122 sensor 132.0 | miR-27b select inactive
Cc1ccc(S(=O)(=O)Nc2ccc3c4c(cccc24)CC3)c(C)c1	miR-122 sensor 198.4 (no result: MITF act) | miR-27b select inactive
Cc1ccc(C)c(S(=O)(=O)Nc2ccc3cn[nH]c3c2)c1	miR-122 sensor 153.2 | miR-27b select inactive
C[C@@H]1CN([C@@H](C)CO)C(=O)c2cc(-c3cccc(F)c3)cnc2O[C@@H]1CN(C)Cc1cccc(F)c1	none (no result: PglD DTNB, MITF act, Wnt bcat act)
CO[C@H]1CN(C)C(=O)c2ccc(NC(=O)Nc3cccc(Cl)c3)cc2OC[C@H](C)NC[C@H]1C	none (no result: MITF act, Wnt bcat act)
Cc1cccc(NS(=O)(=O)c2cc3c(cc2C)NC(=O)CO3)c1	miR-122 sensor 107.1 (no result: MITF act) | miR-27b select inactive
O=C(Nc1ccc(N2CCOCC2)c(S(=O)(=O)Nc2cc(Cl)ccc2Cl)c1)c1cccnc1	miR-122 sensor 325.0 | miR-27b select inactive
CCOc1ccccc1N1CCN(C(=O)c2cccc(-c3ccc(O)cc3)c2)CC1	miR-122 sensor 156.3 (no result: esBAF inh) | miR-27b select inactive
CCOc1ccccc1N1CCN(C(=O)c2ccncc2)CC1	none (no result: esBAF inh, miR-122 sensor, Yeast UUG start-1, PglD DTNB)
CCCC(O)C#Cc1cnc2c(c1)C(=O)N([C@H](C)CO)C[C@H](C)[C@H](CN(C)C(=O)NC1CCCCC1)O2 (some centres undefined)	none (no result: MITF act, Wnt bcat act)
Cc1ccc(/C=C/C(=O)O)cc1S(=O)(=O)NCCO	none (no result: esBAF inh, Wnt bcat act)
Cc1cc(C(C)(C)C)cc(S(=O)(=O)NCCO)c1C	miR-122 sensor 93.4 | miR-27b select inactive
Nc1c(S(=O)(=O)c2cccs2)c2nc3ccccc3nc2n1Cc1ccccc1	miR-122 sensor 321.1 (no result: Wnt bcat act) | miR-27b select inactive
Cc1ccc(Cn2c(N)c(S(=O)(=O)c3cccs3)c3nc4ccccc4nc32)cc1	none
CCOc1ccc(C)cc1S(=O)(=O)NC1CCCCC1	miR-122 sensor 282.6 (no result: MITF act) | miR-27b select inactive
CCOc1cc(S(=O)(=O)NC2CCCCC2)ccc1F	none
Cc1cc(C)c(C)c(S(=O)(=O)NC2CCCCC2)c1C	miR-122 sensor 92.9 | miR-27b select inactive
COc1ccc(C)cc1NS(=O)(=O)c1ccc2c(c1)N(C)CCO2	miR-122 sensor 148.9 | miR-27b select inactive
O=C([C@H]1[C@H](CO)[C@H]2Cn3c(cccc3=O)[C@@H]1N2CC1CCCCC1)N1CCOCC1	none (no result: miR-122 sensor, Yeast UUG start-1, MITF act, Wnt bcat act)
Cc1ccccc1-n1c(SCC(=O)N(C)C2CCS(=O)(=O)C2)nnc1-c1ccncc1 (centres undefined)	none
Cc1ccccc1-n1c(SCC(=O)c2cc(C)n(C)c2C)nnc1-c1ccncc1	none (no result: MITF act) | Yeast UUG start-2 inactive
CO[C@@H]1CN(C)C(=O)c2ccc(NC(=O)c3ccccn3)cc2OC[C@@H](C)N(C(=O)C2CCCC2)C[C@H]1C	none (no result: MITF act, Wnt bcat act)
C[C@H]1CN([C@@H](C)CO)S(=O)(=O)c2ccc(C#CC3CCCC3)cc2O[C@H]1CN(C)C(=O)c1cccc(F)c1	none (no result: esBAF inh, Yeast UUG start-1, PglD DTNB, MITF act, Wnt bcat act)
CCCc1cc(=O)[nH]c(SCC(=O)c2cc(C)n(-c3cc(C)on3)c2C)n1	none (no result: Yeast UUG start-1, PglD DTNB) | Yeast UUG start-2 inactive
Cc1cc(-n2c(C)cc(C(=O)CSc3nc(N)cc(=O)[nH]3)c2C)no1	none | Yeast UUG start-2 inactive
Cc1ccccc1S(=O)(=O)NC1=NCCCCC1	none (no result: Yeast UUG start-1, PglD DTNB)
O=S(=O)(NC1=NCCCCC1)c1ccccc1Cl	Yeast UUG start-1 446.5 | Yeast UUG start-2 inactive
COc1cccc(S(=O)(=O)Nc2ccc3c(c2)[C@H]2C[C@@H](CC(=O)N4CCCCC4)O[C@H](CO)[C@H]2O3)c1	none (no result: Yeast UUG start-1, MITF act, Wnt bcat act)
COC1(OC)C(/C=C/c2ccc(C)cc2)C(C#N)(C#N)C1(OC)OC (centres undefined)	Yeast UUG start-1 548.6 (no result: MITF act) | Yeast UUG start-2 inactive
O=C(NCC1OCCc2ccccc21)c1ccco1 (centres undefined)	Yeast UUG start-1 322.9 (no result: MITF act, Wnt bcat act) | Yeast UUG start-2 inactive
COc1ccc(Nc2nc3ccccc3n2C)cc1	Wnt bcat act 40.9 | Yeast UUG start-2 inactive
O=C(NCC[C@@H]1CC[C@H](NS(=O)(=O)c2cccc(F)c2)[C@H](CO)O1)C1CCCC1	Yeast UUG start-1 145.2 (no result: MITF act, Wnt bcat act) | Yeast UUG start-2 inactive
